This experiment has as its target human E-Selectin-IgG-chimera (Homo sapiens, UniProt P16581). As to the kind of experiment: Sialyl Lewis^x Tyrosine Sulfate Assay (sLe^x TSA), E-selectin. Conditions: inhibition of binding of selectin chimera to sLe^x-tyrosine sulfate polyacrylamide ligand complex. The protocol: Compounds of the present invention are assayed on a molecular level for their ability to inhibit the binding of P-, L-, or E-selectin chimeric molecules to sLe^x and tyrosinesulfate residues linked to a polymeric matrix as a PSGL-1 substitute. IC50-values are determined.
Microtiter plates are coated overnight in carbonate buffer pH9.6 with goat anti human Fc mAB (10 μg/ml). After washing in assay buffer (25 mM 4-(2-hydroxyethyl)-1-piperazineethanesulfonic acid (HEPES), 150 mM NaCl, 1 mM CaCl2 pH7.4) and blocking (3% bovine serum albumin (BSA) in assay buffer) plates are incubated for 2 h at 37° C. with human P-Selectin-IgG-chimera (0.61 nM respectively 150 ng/mL) or human L-Selectin-IgG-chimera (0.61 nM respectively 89 ng/mL) or human E-Selectin-IgG-chimera (0.61 nM respectively 131 ng/mL). 5 μl of sLe^x-tyrosine sulfate polyacrylamide (1 mg/ml) carrying 15% sLe^x, 10% Tyrosine-sulfate and 5% biotin is complexed with 20 μl Streptavidin-Peroxidase solution (1 mg/ml) and 25 μl assay buffer without CaCl2. For use in the assay, the ligand complex is diluted 1:10000 in assay buffer and further diluted 1:1 with varying amounts of compounds in assay buffer incl. 2% DMSO. […] Bound sLe^x-Tyrosine sulfate ligand complex is determined by measuring optical density at 450 nm vs. 620 nm in a Fusion alpha-FP reader (sold from Packard Bioscience, Dreieich, Germany).

Sequences of proteins named here, by UniProt entry; tags and fusion partners are left off. A change or cut given only in a name is not applied to a line headed by its entry. A line that says so, or that is headed by a name, gives the form on record, which may keep a tag or linker.
UniProt P16581, with tags, fused parts or gaps limits assumed: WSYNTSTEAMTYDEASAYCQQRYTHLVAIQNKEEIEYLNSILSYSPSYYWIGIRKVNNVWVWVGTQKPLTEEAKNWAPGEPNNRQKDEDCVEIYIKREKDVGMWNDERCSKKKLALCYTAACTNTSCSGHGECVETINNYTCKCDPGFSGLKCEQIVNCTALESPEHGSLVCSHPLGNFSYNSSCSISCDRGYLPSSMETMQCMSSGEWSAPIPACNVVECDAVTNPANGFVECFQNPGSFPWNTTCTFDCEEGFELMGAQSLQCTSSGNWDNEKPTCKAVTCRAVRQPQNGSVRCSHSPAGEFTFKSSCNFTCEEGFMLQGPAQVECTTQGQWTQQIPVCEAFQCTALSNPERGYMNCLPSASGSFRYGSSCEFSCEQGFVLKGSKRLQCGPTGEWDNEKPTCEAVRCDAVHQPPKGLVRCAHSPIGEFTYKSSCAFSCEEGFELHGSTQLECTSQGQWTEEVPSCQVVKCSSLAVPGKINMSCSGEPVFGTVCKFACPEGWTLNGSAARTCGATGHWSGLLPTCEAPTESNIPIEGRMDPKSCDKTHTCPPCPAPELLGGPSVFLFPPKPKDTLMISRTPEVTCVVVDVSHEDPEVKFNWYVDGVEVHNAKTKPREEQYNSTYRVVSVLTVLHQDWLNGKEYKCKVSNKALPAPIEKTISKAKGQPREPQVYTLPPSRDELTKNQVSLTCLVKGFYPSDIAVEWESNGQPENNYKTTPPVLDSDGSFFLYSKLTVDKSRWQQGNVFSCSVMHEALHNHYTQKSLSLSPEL

By IC50 is commonly meant the concentration needed to halve the response being measured. `O=C(O)Cc1cccc(-c2cc(CCCCCCc3ccc(O[C@H]4O[C@H](CO)[C@@H](O)[C@H](O)[C@@H]4O)c(-c4cccc(CC(=O)O)c4)c3)ccc2O[C@H]2O[C@H](CO)[C@@H](O)[C@H](O)[C@@H]2O)c1` [Bimosiamose, bimosiamose, reference compound] showed an IC50 of over 500 µM.
